Laboratory results published in ChEMBL document CHEMBL1140113, “Structural requirements for drug inhibition of the liver specific human organic cation transport protein 1” (J Med Chem, 2008).

Target: T1, Solute carrier family 22 member 1 (Homo sapiens, UniProt O15245)
T1 sequence (O15245 whole entry): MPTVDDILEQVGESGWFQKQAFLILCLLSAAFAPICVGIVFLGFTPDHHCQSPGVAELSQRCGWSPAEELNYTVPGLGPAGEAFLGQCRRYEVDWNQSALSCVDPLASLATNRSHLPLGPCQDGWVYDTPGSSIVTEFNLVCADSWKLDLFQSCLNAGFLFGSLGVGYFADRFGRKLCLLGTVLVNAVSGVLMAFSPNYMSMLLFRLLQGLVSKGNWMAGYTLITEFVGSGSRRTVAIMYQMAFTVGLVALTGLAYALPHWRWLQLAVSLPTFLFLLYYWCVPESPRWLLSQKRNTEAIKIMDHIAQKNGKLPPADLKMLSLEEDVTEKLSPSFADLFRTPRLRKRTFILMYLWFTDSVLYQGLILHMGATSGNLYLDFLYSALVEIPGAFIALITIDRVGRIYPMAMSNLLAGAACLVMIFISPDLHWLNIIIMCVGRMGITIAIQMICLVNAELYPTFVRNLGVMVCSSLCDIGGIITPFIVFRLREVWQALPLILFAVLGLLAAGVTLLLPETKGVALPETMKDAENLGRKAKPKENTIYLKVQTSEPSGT
Type: cell-based
Settings: hek293

IC50: 89.5 µM
Sequence: FLUPENTIXOL
